One assay deals with cdk1/cyclin B (CDC2) (Homo sapiens, UniProt P06493). Put plainly: CDK inhibition assay, cdk1/cyclin B (CDC2) kinase, histone phosphorylation. Type of assay: biochemical. The conditions noted are these: read-out: CDC2 IC50.
In another assay the target is IκB-α kinase. Put plainly: IκB-α kinase inhibition, in vitro kinase assay. The conditions noted are these: read-out: IκB-α IC50.
For another assay, the target named is MMK1 protein kinase (Vicia faba, UniProt A0AAV1B7B8). Put plainly: MMK1 protein kinase activity. The settings on record: read-out: MMK1 IC50.
In assay [1] the target is cdc2a-MS protein (plant CDK, cdc2Ms kinase) (Vicia faba, UniProt A0AAV0YZ35). As to the kind of experiment: CDK inhibitory activity on plant kinases (plant CDK). The settings on record: read-out: Cdc2a IC50, histone H1 phosphorylation.
Another assay relates to B16. Put plainly: In vitro cytotoxic activity, Calcein AM. The settings on record: read-out: B16 GI50, three days.
Assay [2] deals with CEM (human lymphoblastoid leukemia). Put plainly: In vitro cytotoxic activity, Calcein AM. The conditions noted are these: read-out: CEM GI50, three days.

Sequences of proteins named here, by UniProt entry; tags and fusion partners are left off. Residues count along the entry.
UniProt P06493, whole entry: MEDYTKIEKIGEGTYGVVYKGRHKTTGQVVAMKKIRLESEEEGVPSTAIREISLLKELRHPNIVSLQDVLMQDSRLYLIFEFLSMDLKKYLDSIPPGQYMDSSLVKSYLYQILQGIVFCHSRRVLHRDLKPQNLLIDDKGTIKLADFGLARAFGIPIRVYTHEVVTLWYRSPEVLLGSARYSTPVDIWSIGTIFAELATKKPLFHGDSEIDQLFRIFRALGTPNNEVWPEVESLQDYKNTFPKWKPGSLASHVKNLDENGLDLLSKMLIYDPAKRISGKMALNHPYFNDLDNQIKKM
UniProt A0AAV1B7B8, 1-394: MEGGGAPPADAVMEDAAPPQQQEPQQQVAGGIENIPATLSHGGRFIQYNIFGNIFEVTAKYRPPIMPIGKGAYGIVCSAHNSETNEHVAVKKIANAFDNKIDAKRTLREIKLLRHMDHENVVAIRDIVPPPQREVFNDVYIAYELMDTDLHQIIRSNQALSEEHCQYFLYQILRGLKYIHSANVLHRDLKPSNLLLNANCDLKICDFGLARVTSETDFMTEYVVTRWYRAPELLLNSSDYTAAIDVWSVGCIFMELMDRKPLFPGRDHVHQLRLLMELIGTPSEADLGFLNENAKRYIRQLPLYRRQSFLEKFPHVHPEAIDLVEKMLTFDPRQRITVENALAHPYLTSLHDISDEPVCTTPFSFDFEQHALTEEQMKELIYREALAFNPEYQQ
UniProt A0AAV0YZ35, 1-294: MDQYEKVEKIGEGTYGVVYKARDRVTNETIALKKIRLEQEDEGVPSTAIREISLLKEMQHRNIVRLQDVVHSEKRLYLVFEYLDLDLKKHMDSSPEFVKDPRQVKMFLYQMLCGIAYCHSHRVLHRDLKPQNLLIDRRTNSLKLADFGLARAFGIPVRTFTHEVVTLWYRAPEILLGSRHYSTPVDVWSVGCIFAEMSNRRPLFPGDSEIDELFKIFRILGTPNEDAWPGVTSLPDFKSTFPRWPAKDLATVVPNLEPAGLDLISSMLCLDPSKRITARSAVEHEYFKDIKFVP
UniProt P14635, whole entry partner: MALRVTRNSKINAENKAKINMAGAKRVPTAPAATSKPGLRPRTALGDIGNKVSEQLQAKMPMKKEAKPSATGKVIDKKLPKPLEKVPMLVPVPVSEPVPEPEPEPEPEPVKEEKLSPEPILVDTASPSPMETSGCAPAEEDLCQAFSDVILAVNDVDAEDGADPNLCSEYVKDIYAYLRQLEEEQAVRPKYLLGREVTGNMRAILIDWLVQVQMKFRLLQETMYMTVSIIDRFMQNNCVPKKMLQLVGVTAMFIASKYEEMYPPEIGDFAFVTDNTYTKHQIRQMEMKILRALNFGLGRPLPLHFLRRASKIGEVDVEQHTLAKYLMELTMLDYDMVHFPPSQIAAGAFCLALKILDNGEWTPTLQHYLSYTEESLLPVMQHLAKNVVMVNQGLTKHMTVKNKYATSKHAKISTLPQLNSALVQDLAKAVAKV

As a reminder, the IC50 is the concentration that gives 50% inhibition. What is called GI50 is the concentration that inhibits growth by half.

On to `CC[C@H](CO)Nc1nc(NCc2cc(O)c(Cl)cc2O)c2[nH]nc(C(C)C)c2n1`, for which the IC50 at cdk1/cyclin B (CDC2) is 8 nM; at IκB-α kinase, 15 nM.
For `Cc1n[nH]c2c(NCc3ccc(Cl)c(O)c3O)nc(NCCO)nc12`, the IC50 at MMK1 protein kinase was 220 nM; in assay [1], 90 nM. For the same compound, the GI50 in the assay on B16 was 3200 nM; in assay [2] it was 2100 nM.
As to `Cc1n[nH]c2c(NCc3cc(O)c(Cl)cc3O)nc(NCCO)nc12`, the values for the IC50 at cdk1/cyclin B (CDC2) and at IκB-α kinase were 10 nM and 35 nM, respectively.
Consider `CC[C@H](CO)Nc1nc(NCc2c(O)cc(Cl)cc2O)c2[nH]nc(C(C)C)c2n1`, for which the concentration for half-maximal inhibition (IC50) on MMK1 protein kinase came to 2 nM; in assay [1], 1 nM; on cdk1/cyclin B (CDC2) it was 1 nM; at IκB-α kinase, 2 nM. Further, the concentration for 50% growth inhibition (GI50) in the assay with B16 is 2900 nM; in assay [2], 1600 nM.
Take `Cc1n[nH]c2c(NCc3c(O)cc(Cl)cc3O)nc(NCCO)nc12`: the IC50 on MMK1 protein kinase is 160 nM; in assay [1], 60 nM. Besides, the GI50 in the assay on B16 was 2500 nM; in assay [2] it was 1800 nM.

Values taken from patent US7745450B2, “Pyrazolo[4,3-d]pyrimidines, processes for their preparation and methods for therapy” (Institute of Experimental Botany, priority 2002, dated 2010).
